For one compound, CC50 results are on record in patent US20040121316A1 (priority 2002, published 2004).

The subject of the data set is MT-2 cells. The data set can be described thus: Cytotoxicity Cell Culture Assay (CC50). As to conditions: read-out: Cytotoxicity CC50, 5 days, XTT.

For the compound `CCOC(=O)[C@H](C)NP(=O)(COc1ccc(C[C@H](NC(=O)O[C@H]2CO[C@H]3OCC[C@H]32)[C@H](O)CN(CC(C)C)S(=O)(=O)c2ccc(OC)cc2)cc1)N[C@@H](C)C(=O)OCC`, the half-maximal cytotoxic concentration (CC50) – broadly, the concentration that lowers cell viability or growth by half – is 60 µM.
